In patent US4130648A, “5-Fluorouracil derivatives and antitumor preparations containing the same” (Eisai Co., Ltd., priority 1976, dated 1978):

Key:
Sarcoma-180 (S-180) = experiment: Effect on growth of solid tumor by oral administration, S-180; type: in vivo, mice (ICR/JCL, female); settings: S-180 solid tumor
Description: (3) Effect on growth of solid tumor by oral administration
1.8 × 10^6 cells of S-180 were implanted subcutaneously in ICR/JCL mice (female, 6-8 weeks old).
Each of the drugs was orally administered as a solution of safflower oil 3 hours after the implantation.
Safflower oil was administered as control for each of the drugs.
Twenty days after, the tumor weight was measured, and the ratio of the tumor weight to that of the control group (T/C %) was calculated.

in vivo = settings: mouse

For O=c1[nH]c(=O)n(C2CCCO2)cc1F (centres unmarked) [FT-207], the “ratio of the minimum effective dose to toxic dose (LD50)” value (Sarcoma-180 (S-180)) was “about 1/10”, the LD50 at 504 h (in vivo; ip) was 800 mg/kg and the LD50 at 504 h (in vivo; iv) was 750 mg/kg. For the same compound, the LD50 at 504 h (in vivo; po) was 930 mg/kg and the LD50 at 504 h (in vivo; sc) was 830 mg/kg.
